# Source: PubChem BioAssay AID651640 (Broad Institute, 2012)
# The list shows a part of the results, in another mix than the full data. Some of these compounds have results that are not shown, active ones among them. Results filed as inconclusive are left out. The source made the active and inactive calls. Rule as the data show it: active = CPE inhibition above about 20% (passing the limit was not always enough); inconclusive = no clear call, values can overlap the other calls; tested in BHK-21 cells.
# Assay: protection of cells from dengue 2 killing – plate reader, single concentration, primary screen (AID 651640);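 also: 0% = median of neutral control wells and 100% = median of positive control wells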
# Settings: DENV2-infected cells, cytopathic effect rescue, at 9.99 µM, hits give high values
row,SMILES,CPE inhibition
1,O=C(NCC1(N2CCCCC2)CCCCC1)c1cc([N+](=O)[O-])ccc1Cl,inactive: -4.88%
2,CN1[C@@H]2CC[C@H]1CC(OC(=O)C(O)(c1ccccc1)c1ccccc1)C2 (some centres not stated),inactive: 16.9%
3,COc1cc(SC)ccc1C(=O)NCC1(N(C)C)CCCCC1,inactive: 16%
4,CCN(CC)CC(C)C(C)OC(=O)C(O)(c1ccccc1)c1ccccc1 (configuration not stated),inactive: -6.84%
5,Cc1ccc(C(=O)NCC2(N3CCCCC3)CCCCC2)cc1,inactive: 3.36%
6,CN(C)C1CCCC1OC(=O)C(O)(c1ccccc1)c1ccccc1 (configuration not stated),inactive: 11.6%
7,CN(C)c1ccc(C(=O)NCC2(N(C)C)CCCCC2)cc1,inactive: 1.54%
8,Cc1ccccc1C(=O)NCC1(N2CCCCC2)CCCCC1,inactive: 9.44%
9,O=C(NCC1(N2CCCCC2)CCCCC1)c1cc(F)c(F)cc1Cl,inactive: 6.48%
10,C=CCN1CCN(CCOC(=O)C(O)(c2ccccc2)c2ccccc2)CC1,inactive: -6%
11,COc1ccc(C(=O)NCC2(N(C)C)CCCCC2)cc1,inactive: -0.698%
12,O=C(NCC1(N2CCCCC2)CCCCC1)c1cccc(Br)c1,inactive: 3.72%
13,Cc1cc(C(=O)NCC2(N3CCCCC3)CCCCC2)ccc1[N+](=O)[O-],inactive: 6.77%
14,CN(C)C1(CNC(=O)c2ccc(Br)cc2)CCCCC1,inactive: -0.137%
15,COc1cc(C(=O)NCC2(N(C)C)CCCCC2)c([N+](=O)[O-])cc1OC,inactive: 8.03%
16,COc1ccc(Cl)cc1C(=O)NCC1(N(C)C)CCCCC1,inactive: -0.842%
17,COc1cccc(C(=O)NCC2(N3CCCCC3)CCCCC2)c1,inactive: 3.66%
18,O=C(NCC1(N2CCCCC2)CCCCC1)c1cccc(Cl)c1,inactive: -4.79%
19,C=C(C)C#CC(O)(C(=O)OC1CCN(C)CC1)c1ccccc1 (configuration not stated),inactive: 13.4%
20,COc1ccc(Br)c(C(=O)NCC2(N3CCCCC3)CCCCC2)c1,inactive: 1.06%
21,O=C(OCCN1CCCC1)C(O)(c1ccccc1)c1ccccc1,inactive: -0.121%
22,CC(C)Oc1ccc(C(=O)NCC2(N(C)C)CCCCC2)cc1,inactive: 0.0395%
